For the assay, the target named is Kappa-type opioid receptor (Rattus norvegicus, UniProt P34975). Nature of the assay: Dissociation constant against wild type EL-2 Opioid receptor kappa 1 expressed in HEK cells. The conditions noted are these: hek293.

Sequences of proteins named here, by UniProt entry; tags and fusion partners are left off. A change or cut given only in a name is not applied to a line headed by its entry.
UniProt P34975: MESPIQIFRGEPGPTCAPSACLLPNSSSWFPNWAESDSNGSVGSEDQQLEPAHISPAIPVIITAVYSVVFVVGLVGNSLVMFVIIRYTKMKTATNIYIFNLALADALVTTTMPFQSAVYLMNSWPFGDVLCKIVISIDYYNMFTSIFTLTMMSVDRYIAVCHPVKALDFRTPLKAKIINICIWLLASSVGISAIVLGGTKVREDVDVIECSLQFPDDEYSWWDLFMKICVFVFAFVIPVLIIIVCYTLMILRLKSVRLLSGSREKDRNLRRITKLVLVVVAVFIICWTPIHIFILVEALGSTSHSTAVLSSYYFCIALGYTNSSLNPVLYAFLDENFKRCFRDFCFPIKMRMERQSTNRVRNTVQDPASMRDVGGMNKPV

`CO[C@]12CC[C@@]3(C[C@@H]1C(C)(C)O)[C@H]1Cc4ccc(O)c5c4[C@@]3(CCN1CC1CC1)[C@H]2O5` registered a Kd of 0.029 nM.

A word on the Kd: it is the equilibrium constant for the complex coming apart. A higher Kd goes with lower affinity.

(Values after ChEMBL document CHEMBL1132988.)
